The source of these data is publication PMC9119049 (Journal of medicinal chemistry, 2021).

Test [1] concerns HEK293T cells. Description: p21 immunoblotting in HEK293T cells. The note with it: 6 h drug exposure.
A further test deals with MM1.S cells. Description: Cell growth inhibition, CellTiter Blue. The format is cell-based. As to conditions: Homo sapiens, 72 h, read-out: Cell growth inhibitory potential IC50. (Resazurin is reduced to fluorescent resorufin, in cell work by metabolically active cells.)
For test [2], the system named is HEK293T cells. Description: Cell growth inhibition, CellTiter Blue. In kind it is cell-based. The note with it: Homo sapiens, HEK-293T, 72 h, read-out: Cell growth inhibitory potential IC50.

Regarding `COc1cc(C(=O)NC2CCN(C)CC2)ccc1Nc1ncc2c(n1)N(C1CCCC1)CC(F)(F)C(=O)N2C` [Ro3280], the p21Cip1 levels entry with HEK293T cells [1] was “increased significantly”.

As to `CC[C@@H]1C(=O)N(C)c2cnc(Nc3ccc(C(=O)NC4CCN(C)CC4)cc3OC)nc2N1C1CCCC1` [BI2536], the IC50 in the test on MM1.S cells turned out to be 1.2 ± 0.15 nM; in the test with HEK293T cells [2], 0.6 ± 0.14 nM.

What is called IC50 is the concentration at which inhibition is half-maximal.
